pIC50: −log10 of the molar value.
What was measured:
PC3 cells [1] = assay: PC3 cell proliferation, 3D activity assay (3D culture, 14 days); assay type: cell-based, human; conditions: read-out: 3D inhibitory activity against PC3 cells IC50
PC3 cells [2] = assay: PC3 cell proliferation, 2D activity assay (Cell Titer-Lumi, 72 h); assay type: cell-based, human; conditions: read-out: 2D inhibitory activity against PC3 cells IC50
FAK recombinant protein = FAK recombinant protein (Homo sapiens (Human), UniProt Q05397); assay: Inhibitory activity against FAK enzyme (HTRF, TK substrate); conditions: read-out: IC50 against FAK enzyme

Protein sequences, listed by entry. Tags and fused reporters are not part of them.
UniProt Q05397, whole entry: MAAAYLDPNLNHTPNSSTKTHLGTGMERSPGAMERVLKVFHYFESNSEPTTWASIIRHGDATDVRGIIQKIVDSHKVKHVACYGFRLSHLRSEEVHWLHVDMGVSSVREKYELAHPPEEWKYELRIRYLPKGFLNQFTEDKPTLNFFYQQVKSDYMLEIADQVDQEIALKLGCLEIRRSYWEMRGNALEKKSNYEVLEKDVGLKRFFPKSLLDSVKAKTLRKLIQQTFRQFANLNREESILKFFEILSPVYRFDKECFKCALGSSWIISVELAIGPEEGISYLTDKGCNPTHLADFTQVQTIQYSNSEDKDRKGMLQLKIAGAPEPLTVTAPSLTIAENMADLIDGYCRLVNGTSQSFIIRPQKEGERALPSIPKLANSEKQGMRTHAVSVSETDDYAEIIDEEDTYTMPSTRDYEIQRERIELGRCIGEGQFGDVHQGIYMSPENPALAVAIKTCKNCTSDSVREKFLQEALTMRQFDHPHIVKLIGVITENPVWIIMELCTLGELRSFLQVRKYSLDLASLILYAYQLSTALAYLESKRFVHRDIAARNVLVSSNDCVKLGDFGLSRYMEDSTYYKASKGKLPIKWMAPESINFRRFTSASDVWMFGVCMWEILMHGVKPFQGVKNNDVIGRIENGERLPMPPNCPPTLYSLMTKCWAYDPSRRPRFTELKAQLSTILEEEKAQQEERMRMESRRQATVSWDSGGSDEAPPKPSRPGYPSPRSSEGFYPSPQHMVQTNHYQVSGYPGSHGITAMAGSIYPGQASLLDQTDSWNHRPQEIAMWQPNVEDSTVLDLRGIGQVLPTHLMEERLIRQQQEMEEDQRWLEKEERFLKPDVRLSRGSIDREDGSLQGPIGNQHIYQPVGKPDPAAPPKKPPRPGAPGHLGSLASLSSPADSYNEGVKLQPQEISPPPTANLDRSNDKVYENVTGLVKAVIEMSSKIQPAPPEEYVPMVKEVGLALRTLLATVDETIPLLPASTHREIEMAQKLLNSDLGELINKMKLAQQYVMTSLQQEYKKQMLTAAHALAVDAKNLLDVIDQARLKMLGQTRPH

pIC50 (PC3 cells [1])	pIC50 (PC3 cells [2])	pIC50 (FAK recombinant protein)	SMILES
> 8.30	< 5.70	–	[2H]C([2H])([2H])N1CCC(NC(=O)c2ccc(Nc3ncc(C(F)(F)F)c(Oc4cccc5c4C(=O)N(C)C54CC4)n3)c(OC)c2)CC1
> 8.30	< 5.70	> 7.70	COc1cc(N2CCC(N3CCN(C)CC3)C2)ccc1Nc1ncc(Cl)c(Oc2cccc3c2C(=O)N(C)C32CC2)n1 (centres unmarked)

From US20250154134A1, “COMPOUND AS FAK INHIBITOR AND USE THEREOF” (WIGEN BIOMEDICINE TECHNOLOGY (SHANGHAI) CO., LTD., priority 2022, published 2025)
